Molecular target: DC-SIGN V351G mutant (Homo sapiens, UniProt Q9NNX6, V351G)

Sequences of proteins named here, by UniProt entry; tags and fusion partners are left off.
UniProt Q9NNX6, whole entry V351G: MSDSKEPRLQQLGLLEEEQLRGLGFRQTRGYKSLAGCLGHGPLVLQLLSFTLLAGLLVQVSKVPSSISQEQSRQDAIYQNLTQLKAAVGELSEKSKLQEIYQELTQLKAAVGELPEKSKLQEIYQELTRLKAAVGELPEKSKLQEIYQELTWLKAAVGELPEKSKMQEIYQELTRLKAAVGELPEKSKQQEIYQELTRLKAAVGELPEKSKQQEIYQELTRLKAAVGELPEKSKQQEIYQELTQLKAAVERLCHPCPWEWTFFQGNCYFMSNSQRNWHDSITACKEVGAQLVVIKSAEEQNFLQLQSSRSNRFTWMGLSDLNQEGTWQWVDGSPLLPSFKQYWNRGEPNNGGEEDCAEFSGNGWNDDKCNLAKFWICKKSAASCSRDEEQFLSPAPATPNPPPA

binding to DC-SIGN V351G mutant: abrogated
B1: ICAM-3: cellular ligand of DC-SIGN (protein)
chain: QEFLLRVEPQNPVLSAGGSLFVNCSTDCPSSEKIALETSLSKELVASGMGWAAFNLSNVTGNSRILCSVYCNGSQITGSSNITVYRLPERVELAPLPPWQPVGQNFTLRCQVEDGSPRTSLTVVLLRWEEELSRQPAVEEPAEVTATVLASRDDHGAPFSCRTELDMQPQGLGLFVNTSAPRQLRTFVLPVTPPRLVAPRFLEVETSWPVDCTLDGLFPASEAQVYLALGDQMLNATVMNHGDTLTATATATARADQEGAREIVCNVTLGGERREARENLTVFSFLGPIVNLSEPTAHEGSTVTVSCMAGARVQVTLDGVPAAAPGQPAQLQLNATESDDGRSFFCSATLEVDGEFLHRNSSVQLRVLYGPKIDRATCPQHLKWKDKTRHVLQCQARGNPYPELRCLKEGSSREVPVGIPFFVNVTHNGTYQCQASSSRGKYTLVVVMDIEAGSSH
